These results are taken from EP0136831A2, “Azahomoerythromycin B derivatives and intermediates thereof” (PFIZER INC., priority 1983, dated 1985).

For the assay, the system named is Kleb. pn. The assay can be described thus: MIC in brain heart infusion (BHI) broth. The assay is classed as cell-based. As to conditions: strain 031.

Turning to `CC[C@H]1OC(=O)[C@H](C)[C@@H](O[C@H]2C[C@@](C)(OC)[C@@H](O)[C@H](C)O2)[C@H](C)[C@@H](O[C@@H]2O[C@H](C)C[C@H](N(C)C)[C@H]2O)[C@](C)(O)C[C@@H](C)C(=O)[C@H](C)[C@@H](O)[C@]1(C)O` [(1), Erythromycin A], the “MIC Values” is recorded as “(a) (greater than 50)”.
